AlphaSeq binding of Ab-14 light chain variants to a spike HR2 peptide

Reference: Engelhart et al. 2022, doi:10.1038/s41597-022-01779-4. File: FLAb, binding data.

Target peptide (SARS-CoV-2 spike, HR2 region): PDVDLGDISGINAS

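The parent was found by panning a naive human phage display library on the peptide. Variants in AAYL50 differ from the parent at up to three CDR positions; double and triple changes were sampled at random. The assay is AlphaSeq: two haploid yeast populations carry antibody and antigen on their surface. The frequency of each diploid, read from paired DNA barcodes, reflects how well the two displayed proteins bind. Read counts were normalised to the haploid input and turned into Kd by a linear fit to BCL2-family pairs of known affinity, for each replicate. Each pool was mated in three replicate cultures.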

Parent: Ab-14, a human scFv built as VH, a 15-residue (Gly4Ser)3 linker, VL. Only the CDRs of the light chain vary.
VH: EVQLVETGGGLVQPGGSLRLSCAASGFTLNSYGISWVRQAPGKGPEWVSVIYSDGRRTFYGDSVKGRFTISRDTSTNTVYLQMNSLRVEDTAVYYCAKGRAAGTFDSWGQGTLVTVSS
VL: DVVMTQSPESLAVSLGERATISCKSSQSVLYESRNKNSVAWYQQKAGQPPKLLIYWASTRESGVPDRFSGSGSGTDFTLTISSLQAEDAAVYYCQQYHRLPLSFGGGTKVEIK

Positions count from residue 1 of the parent VL; K24E puts E in place of K.
Affinities are written as log10 Kd with Kd in nM; a lower number is a better binder.
A mean of the replicates is given; it leaves out those without a signal.
"not detected" marks a missing value. The strain was present, yet no cells mated with the target were sequenced in any replicate, which points to weak or no binding.
Parent in this assay: reference entry 0.65, copy in this library 1.68.

| mean log10 Kd (nM) | replicates with signal | changes |
|---|---|---|
| 3.46 | 2 of 3 | K24E/S28V/V39E |
| 1.67 | 3 of 3 | K24S/V29Q/E32M |
| 1.72 | 3 of 3 | L30H/R34P/N35T |
| 0.65 | 3 of 3 | L30C/N37R/W56H |
| 4.29 | 1 of 3 | W56V/Y97W/R99Q |
| not detected | 0 of 3 | N37P/Q95P/P101V |
| 0.06 | 3 of 3 | L30P/W56T/S62A |
| 1.69 | 3 of 3 | Q95R/Q96R |
| 0.40 | 3 of 3 | R34D/L100E |
| 0.94 | 3 of 3 | S26E/L30E/N35E |
| 4.02 | 3 of 3 | S26H/Y31T/S103K |
| not detected | 0 of 3 | K24W/S62W/H98Y |
| 1.67 | 3 of 3 | S33A/K36A/Q95T |
| 0.85 | 3 of 3 | Q27Y/T59Q/H98S |
| not detected | 0 of 3 | Q27I/S33K/S38T |
| 1.70 | 3 of 3 | S26E/E32M/R60H |
| 2.44 | 1 of 3 | L30G/A57Q/Q95S |
| not detected | 0 of 3 | V29H/S33R/N37R |
| 3.65 | 1 of 3 | K24D/R34F/E61D |
| not detected | 0 of 3 | A40I/R60N |
| 1.86 | 3 of 3 | S28Q/N37F |
| 2.40 | 3 of 3 | Y31S/T59S/Q95E |
| 5.45 | 1 of 3 | S33C/N35A/L102R |
| 5.79 | 1 of 3 | S38K/R60S/Q96M |
| 2.90 | 1 of 3 | K24N/E32K/S103V |
| 2.04 | 3 of 3 | N35C/W56Q/S62W |
| 3.27 | 2 of 3 | Q27Y/N35T/A57M |
| 3.96 | 2 of 3 | V29N/N35E/Q96H |
| 3.91 | 3 of 3 | E32M/R99M/S103F |
| not detected | 0 of 3 | L30M/T59D/P101N |
| not detected | 0 of 3 | E32G/R60E/S62Y |
| 0.63 | 3 of 3 | K36S/W56T/Q96D |
| 4.24 | 1 of 3 | Y31I/N35H/L100T |
| 2.88 | 3 of 3 | S62C/H98E/P101W |
| not detected | 0 of 3 | S33L/S62T/S103K |
| not detected | 0 of 3 | S38I/T59V/Q95W |
| 0.42 | 3 of 3 | K24Q/Y31E/R99I |
| not detected | 0 of 3 | W56Y/P101M/L102A |
| not detected | 0 of 3 | Y31R/A40G/Q96S |
| 0.19 | 3 of 3 | E32Y/W56N/S103D |
| not detected | 0 of 3 | S33C/V39G/S58C |
| 3.82 | 1 of 3 | K24E/S26C/R60Y |
| 2.32 | 3 of 3 | E32M/S62K/Y97F |
| 1.46 | 3 of 3 | K36W/S58G |
| not detected | 0 of 3 | K24I/E32T/N37E |
| 4.05 | 1 of 3 | A40W/Q96A/L100P |
| 1.39 | 3 of 3 | S28N/R34F/T59R |

Top 5 of the variants detected in all replicates, tightest first:

{"changes": "L30P/W56T/S62A", "mean log10 Kd (nM)": "0.06", "replicates with signal": "3 of 3"}
{"changes": "E32Y/W56N/S103D", "mean log10 Kd (nM)": "0.19", "replicates with signal": "3 of 3"}
{"changes": "R34D/L100E", "mean log10 Kd (nM)": "0.40", "replicates with signal": "3 of 3"}
{"changes": "K24Q/Y31E/R99I", "mean log10 Kd (nM)": "0.42", "replicates with signal": "3 of 3"}
{"changes": "K36S/W56T/Q96D", "mean log10 Kd (nM)": "0.63", "replicates with signal": "3 of 3"}

Nonspecific signal, from three strains lacking the peptide, appeared in 18% of pairings of library AAYL50, centred on 4.19 (5% of these signals below 2.99); values are not corrected for it.